We go through two compounds from BindingDB's records for doi:10.7270/Q2X34VWJ (Nmmlsc, 2009).

Protein sequences, listed by entry. Tags and fused reporters are not part of them.
UniProt P18067, whole entry: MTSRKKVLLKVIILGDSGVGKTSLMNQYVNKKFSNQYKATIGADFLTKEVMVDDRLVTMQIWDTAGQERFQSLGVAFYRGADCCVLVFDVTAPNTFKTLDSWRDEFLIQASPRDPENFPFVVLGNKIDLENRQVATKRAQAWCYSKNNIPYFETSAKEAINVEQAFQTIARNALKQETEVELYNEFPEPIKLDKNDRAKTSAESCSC

This assay addresses Ras-related protein Rab-7a (Canis lupus familiaris, UniProt P18067). Briefly: Rab7 GTP binding inhibitors, further analogs, SAR follow-up, biochemical, additional analogs, wildtype, multiplex bead flow cytometry (AID 2036). (In flow cytometry, cells or beads pass a laser one at a time.)

Consider `COc1ccc2cc([C@@H](C)C(=O)O)ccc2c1` [sodium;(2R)-2-(6-methoxy-2-naphthalenyl)propanoate], for which the concentration giving a half-maximal response (EC50) (in general, the concentration giving half of the maximal effect) was 1.33 µM.

The compound `COc1ccc2cc([C@H](C)C(=O)O)ccc2c1` [UNM-0000306098] had an EC50 of 30 µM. Compared with the last compound, the EC50 is about 23-fold higher.
